# Data as given in PubChem BioAssay AID624296 (National Center for Advancing Translational Sciences (NCATS), 2012).
# The list shows a part of the results, in another mix than the full data. Results filed as inconclusive are left out. The source made the active and inactive calls. Calls come from the whole dose curve; as a rule, active = well fitted activation curve with a large enough effect; inconclusive = small, poorly fitted or top-dose-only effect; inactive = no such curve, though single readings can be large or run the other way.
# Assay: A quantitative high throughput screen for small molecules that induce DNA re-replication in MCF 10a normal breast cells. For activity, positive = re-replication: % of control where 0% means no effect. Note: nearly all actives have a fitted effect of over 50% in size.
# Details: MCF 10A DNA re-replication, Hoechst nuclear intensity, 48 h; series mostly up to 46.1 µM; activity, positive = re-replication: at the top concentration
# Potency is the fitted concentration of half-maximal effect.
Structure (SMILES),"activity, positive = re-replication",Potency
O=C(O)COc1ccc([As](=O)(O)O)cc1[N+](=O)[O-],inactive: 3.13%,–
Nc1ccccc1[As](=O)(O)c1ccccc1,inactive: -4.49%,–
O=P(Nc1nccs1)(c1ccccc1)c1nc2ccccc2s1 (configuration not stated),inactive: 12.1%,–
O=[N+]([O-])c1ccc2c(c1)nnn2O,inactive: -3.25%,–
CN(C(=O)Cc1ccc(Cl)c(Cl)c1)[C@H]1CC[C@@]2(CCCO2)C[C@@H]1N1CCCC1,inactive: -4.8%,–
CCOP1(=S)c2c(C)nn(CCC#N)c2N=C(c2ccc(F)cc2)N1C (configuration not stated),inactive: -3.17%,–
CN(C(=O)Cc1ccccc1)[C@@H]1CC[C@]2(CCCO2)C[C@H]1N1CCCC1,inactive: -25.3%,–
NC(=O)Nc1ccc([As](=O)(O)O)cc1,–,inactive
Cc1cccc(OCC(=O)OC2CN3CCC2CC3)c1 (configuration not stated),inactive: -14%,–
O=[As](O)(c1cccc(O)c1)c1cccc(O)c1,inactive: -12.7%,–
O=[As](O)(O)c1cccnc1,inactive: 11.2%,–
COc1cc(C(=O)NCC2(N3CCOCC3)CCCCC2)cc(Cl)c1OC(C)C,inactive: 22.7%,–
CS(=O)(=O)c1ccc(Cl)c(NC(=O)COC(=O)C(O)(c2ccccc2)c2ccccc2)c1,inactive: 12.3%,–
O=C(OC1CN2CCC1CC2)c1ccc(Cl)cc1 (configuration not stated),inactive: 0.503%,–
COc1cc(C2NCCC3(OCCO3)C2(C)C)cc(OC)c1OC (configuration not stated),inactive: -1.19%,–
CCOP(=O)(Nc1cccc2ccccc12)OCC,inactive: 0.476%,–
CCCOP(=S)(Nc1nc(N)cc(=O)[nH]1)OCCC,inactive: 2.03%,–
Nc1cccc2c([As](=O)(O)O)cccc12,inactive: -2.42%,–
Clc1n[nH]nc1-c1nn[nH][15n]1,inactive: -1.15%,–
CC(C)(C)C(=O)NC(Sc1ncccn1)C(Cl)(Cl)Cl (configuration not stated),inactive: 0.194%,–
CCOP(=O)(Nc1ccc(C)cn1)OCC,inactive: 8.24%,–
CN(CCCl)Cc1cc(Cl)c(NC2=NCCN2)c(Cl)c1,inactive: -15.5%,–
CCC1=CC2Cc3nc4ccc(Cl)cc4c(N)c3C(C1)C2 (configuration not stated),inactive: 1.49%,–
O=P1(Nc2ccccn2)COc2ccccc2OC1,inactive: 5.78%,–
CCOP(=O)(NC(=NC(C)c1ccccc1)NC(C)c1ccccc1)OCC (configuration not stated),inactive: 13.4%,–

Structure (SMILES),"activity, positive = re-replication",Potency
CC1(CBr)Cn2c(nc3ccccc3c2=O)S1 (configuration not stated),inactive: -0.498%,–
CC(C)/C=N\N=C(\N)N[N+](=O)[O-],inactive: -5.03%,–
COc1ccccc1CNC(=O)COC(=O)C(O)(c1ccccc1)c1ccccc1,inactive: -2.73%,–
O=C(/C=C/c1ccccc1)OC1CN2CCC1CC2 (configuration not stated),inactive: 0.0767%,–
CCCC1OP(=O)(Nc2ccccc2)OCC1CC (configuration not stated),inactive: 10.9%,–
CN(C)C1(CNC(=O)c2ccc(S(C)(=O)=O)cc2)CCCCC1,inactive: -0.118%,–
Cc1nn(-c2ccccc2)c2c1P(=O)(N1CCOCC1)N(C)C(c1ccccc1)=N2 (configuration not stated),inactive: 1.97%,–
Cc1ccc(C(=O)OC2CN3CCC2CC3)cc1 (configuration not stated),inactive: 3.54%,–
Cc1ccc(OCC(=O)OC2CN3CCC2CC3)cc1 (configuration not stated),inactive: -6.72%,–
O=[As](O)(c1cccs1)c1cccs1,inactive: 10.8%,–
NS(=O)(=O)c1cccc(NC(=O)COC(=O)C(O)(c2ccccc2)c2ccccc2)c1,inactive: 1.3%,–
O=P1(Nc2ccc(Br)cn2)COc2ccccc2OC1,inactive: 1.07%,–
Nc1cccc([As](=O)(O)c2ccccc2)c1,inactive: -3.64%,–
O=P1(Nc2ncccn2)COc2ccccc2OC1,inactive: -3.92%,–
CCCCOc1ccc(C(=O)NCC2(N3CCCCC3)CCCCC2)cc1OC,inactive: 1.36%,–
Cc1cc(SC(NC(=O)c2ccccc2)C(Cl)(Cl)Cl)nc(C(C)C)n1 (configuration not stated),inactive: 7.94%,–
CC1CCNP(=O)(N(CCCl)CCCl)O1 (configuration not stated),inactive: -1.14%,–
CCOC(=O)Nc1ccc([As](=O)(O)O)c(O)c1,inactive: 2.22%,–
O=[N+]([O-])c1ccc(Nc2ccc(Oc3ccc([N+](=O)[O-])cc3[N+](=O)[O-])cc2)c([N+](=O)[O-])c1,inactive: 12.8%,–
Cc1cc(SC(NC=O)C(Cl)(Cl)Cl)ncn1 (configuration not stated),inactive: -7.24%,–
O=P(Nc1ccccn1)(c1cccc2ccccc12)c1cccc2ccccc12,inactive: 12.9%,–
CCOC(=O)Nc1cccc([As](=O)(O)O)c1,inactive: 3.96%,–
O=C(COc1ccccc1)OC1CN2CCC1CC2 (configuration not stated),inactive: 0.376%,–
O=C(Nc1ccncc1[N+](=O)[O-])c1ccc([N+](=O)[O-])cc1[N+](=O)[O-],inactive: -8.65%,–
COP1(=S)c2c(C)nn(CCC#N)c2N=C(c2ccc(F)cc2)N1C (configuration not stated),inactive: -1.73%,–

Structure (SMILES),"activity, positive = re-replication",Potency
CCC(C)N(CC(C)C)C(=S)SC(NC(C)=O)C(Cl)(Cl)Cl (configuration not stated),inactive: 23.4%,–
CCOC(=O)c1ccc(NC(=O)C(C)(CCl)SC)cc1 (configuration not stated),inactive: -19.4%,–
O=C(OC1CN2CCC1CC2)c1cccc([N+](=O)[O-])c1 (configuration not stated),inactive: -8.16%,–
COc1ccc2nc(NP(=O)(c3ccccc3)c3ccccc3)sc2c1,inactive: -6.44%,–
COc1cc(I)ccc1[As](=O)(O)O,inactive: 5.82%,–
O=P1(N(CCCl)CCCl)Nc2ccccc2N1,inactive: -0.472%,–
O=P1(N(CCCl)CCCl)OCCCN1CCCl (configuration not stated),inactive: -6.17%,–
O=C(OC1CN2CCC1CC2)C12CC3CC(CC(C3)C1)C2 (configuration not stated),inactive: -3.03%,–
Cc1cc(=O)[nH]c(N[N+](=O)[O-])n1,inactive: 7.42%,–
Cc1c2c(nc3ccccc13)SC(C(Cl)Cl)C2 (configuration not stated),inactive: 21.3%,–
COc1ccc(N/C(=N/P(=O)(N2CCOCC2)N2CCOCC2)N2CCOCC2)cc1,inactive: -4.79%,–
O=[N+]([O-])c1cc(Oc2ccc([N+](=O)[O-])cc2C(F)(F)F)cc([N+](=O)[O-])c1,inactive: -2.56%,–
Cc1ccc2nc3c(c(C)c2c1)CC(C(Cl)Cl)S3 (configuration not stated),–,active: 20.6 µM
Cc1ccc(OP(=O)(Nc2ccc([N+](=O)[O-])cn2)Oc2ccc(C)cc2)cc1,inactive: -3.45%,–
C[As](=O)(O)c1cccc(C(=O)O)c1,inactive: 7.51%,–
O=[N+]([O-])c1ccc(-c2cc([N+](=O)[O-])c(O)c([N+](=O)[O-])c2)cc1,inactive: 17.5%,–
COc1cc(C(=O)NCC2(N3CCOCC3)CCCCC2)ccc1OCC(C)C,inactive: 22.7%,–
CC(C)NC(=O)NP(=O)(Oc1ccccc1)Oc1ccccc1,inactive: 10.8%,–
CCN(CC)C(=S)SC(NC=O)C(Cl)(Cl)Cl (configuration not stated),inactive: 5.23%,–
O=C(OC1CN2CCC1CC2)c1cccc2[nH]cnc12 (configuration not stated),inactive: 3.29%,–
O=[N+]([O-])c1cc([N+](=O)[O-])c(-c2ccn[nH]2)s1,inactive: 3.75%,–
COC(=O)C1(C)COP(=O)(N2CCCCCC2)OC1 (configuration not stated),inactive: 1.89%,–
CC(C)c1ccc(OP(=O)(Nc2ccccn2)Oc2ccccc2F)cc1 (configuration not stated),inactive: 9.68%,–
ClCCSc1nnc(-c2cccnc2)o1,inactive: -0.211%,–
Cc1cc(SC(NC(=O)c2ccc(F)cc2)C(Cl)(Cl)Cl)ncn1 (configuration not stated),inactive: -7.76%,–

Structure (SMILES),"activity, positive = re-replication",Potency
CCOP(=O)(Nc1ccccc1)OCC,inactive: -6.82%,–
CC(=O)Nc1ccc([As](=O)(O)O)cc1,inactive: -0.498%,–
O=C(O)c1ccccc1[As](=O)(O)O,–,active: 23.1 µM
CCCC1OP(N)(=O)OCC1CC (configuration not stated),inactive: 4.38%,–
O=P(Nc1nc2ccc(Cl)cc2s1)(c1ccccc1)c1ccccc1,inactive: -20.3%,–
CCN(N=Nc1nonc1N)c1nonc1N,inactive: -0.407%,–
Nc1cccc2ccc([As](=O)(O)O)cc12,inactive: -4.08%,–
COc1ccccc1OP(=O)(Nc1ccc(C)cn1)Oc1ccccc1OC,inactive: 5.39%,–
Cc1ccc(OP(=O)(Nc2nccs2)Oc2ccc(C)cc2)cc1,inactive: 6.11%,–
CN1CCCC(OC(=O)C(c2ccccc2)c2ccccc2)C1 (configuration not stated),inactive: 7.39%,–
Clc1ccc(Cl)c(NC2=NCC(CBr)S2)c1 (configuration not stated),inactive: 18.7%,–
Cc1ccc(N/C(=N/P(=O)(N2CCOCC2)N2CCOCC2)N2CCOCC2)cc1,inactive: -5.28%,–
Nc1cc(N)c2nonc2c1[N+](=O)[O-],inactive: -2.71%,–
CC(C)CC(=O)NC(Sc1ccc(Cl)cc1)C(Cl)(Cl)Cl (configuration not stated),inactive: 4.57%,–
Oc1ccccc1CNc1ccccn1,inactive: 6.48%,–
O=C(NC(Sc1ccncn1)C(Cl)(Cl)Cl)c1ccccc1 (configuration not stated),inactive: 0.046%,–
CC(=O)N1C2C3N(C(C)=O)C1C1N(C(C)=O)C(C(N1C(C)=O)N3C(C)=O)N2C(C)=O,inactive: -8.51%,–
O=[N+]([O-])c1cccc2n[nH]nc12,inactive: -1.84%,–
Cc1ccc(NP(=O)(Oc2ccccc2)Oc2ccccc2)nc1,inactive: -8.65%,–
CCc1nc2c(n1)c1c(non1O)c1c2no[n+]1[O-],–,active: 2.91 µM
COc1ccc(C2=NCC(CBr)S2)cc1 (configuration not stated),inactive: -3.62%,–
CC(C)=N/N=C(\N)N[N+](=O)[O-],inactive: 17.8%,–
CN(C)C(=O)OCCc1n(C)cc[n+]1C,inactive: -7.31%,–
Nc1ccc([As](=O)(O)c2ccc(N)cc2)cc1,inactive: -0.0436%,–
CCN(/C(=N/P(=O)(N1CCOCC1)N1CCOCC1)N1CCOCC1)c1ccc(OC)cc1,inactive: -0.0901%,–

Structure (SMILES),"activity, positive = re-replication",Potency
O=C(Nc1cc([As](=O)(O)O)ccc1O)c1ccccc1,inactive: 0.543%,–
O=P1(N(CCCl)CCCl)OCCCS1 (configuration not stated),inactive: 0.606%,–
COC(=O)C1(C)COP(=O)(Nc2ccccc2)OC1 (configuration not stated),inactive: -1.55%,–
O=[N+]([O-])c1cccc(NC2=NCC(CBr)S2)c1 (configuration not stated),inactive: 1.28%,–
O=C(O)CNc1ccc([As](=O)(O)O)cc1,inactive: 8.84%,–
CC(C)(C)C(=O)NC(Sc1ccncn1)C(Cl)(Cl)Cl (configuration not stated),inactive: -2.31%,–
O=[N+]([O-])c1ncn(CCn2ncnc2[N+](=O)[O-])n1,inactive: -0.0068%,–
O=P(Nc1nc2ccccc2s1)(c1ccccc1)c1ccccc1,inactive: 0.518%,–
C[C@H]1OP(=O)(Oc2ccccc2)[C@H](O)[C@H](O)[C@H]1N=[N+]=[N-] (some centres not stated),inactive: 0.766%,–
CN(C(=O)Cc1ccccc1)[C@H]1CC[C@@]2(CCCO2)C[C@@H]1N1CCCC1,inactive: 1.92%,–
COc1ccc(N)c([N+](=O)[O-])c1[N+](=O)[O-],inactive: -41.7%,–
CN(C)C1(CNC(=O)c2ccc(Cl)c(S(N)(=O)=O)c2)CCCCC1,inactive: -16.8%,–
O=P(Nc1ccccn1)(c1ccc(Br)cc1)c1ccc(Br)cc1,inactive: -0.863%,–
C(Cc1nn[nH]n1)Cc1nn[nH]n1,inactive: 2.46%,–
Nc1ccc([As](=O)(O)c2ccc([N+](=O)[O-])cc2)cc1,inactive: -3.03%,–
O=C(OC1CN2CCC1CC2)c1cccc(Cl)c1 (configuration not stated),inactive: -2.26%,–
O=[N+]([O-])c1ncn(CCn2cnc([N+](=O)[O-])n2)n1,inactive: 0.281%,–
O=[N+]([O-])c1ccc(O)c(/C=N/Nc2ccc([N+](=O)[O-])cc2[N+](=O)[O-])c1,inactive: 13.1%,–
O=[As](O)(c1ccccc1)c1ccc(O)cc1,inactive: -4.8%,–
c1nnnn1CCn1cnnn1,inactive: -0.257%,–
O=P(Nc1nccs1)(c1ccccc1)c1ccccc1,inactive: -4.73%,–
CC(C)C(=O)NC(Sc1ccccc1)C(Cl)(Cl)Cl (configuration not stated),inactive: -1.85%,–
